Measurements reported in the OPERA property sets (Mansouri et al. 2018).

Details: experimental values compiled from the literature

SMILES | logP
O=[N+]([O-])c1cc([N+](=O)[O-])c(O)c([N+](=O)[O-])c1 | 1.44
O=P1(N(CCCl)CCCl)OCCCN1Cl (configuration not stated) | 1.94
